Laboratory results from PubChem BioAssay AID1496 (Sanford-Burnham Center for Chemical Genomics, 2009).
This is a selection; strong and weak results do not stand in their true shares. Calls of active or inactive are those of the source.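 Rule for the calls: active = inhibition over about 50% at 20 µM in the single-dose screen (limit read from the data); inactive = the rest.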

By UniProt entry, the sequences of proteins in these tests, tags left out.
UniProt Q01196, whole entry, looked up: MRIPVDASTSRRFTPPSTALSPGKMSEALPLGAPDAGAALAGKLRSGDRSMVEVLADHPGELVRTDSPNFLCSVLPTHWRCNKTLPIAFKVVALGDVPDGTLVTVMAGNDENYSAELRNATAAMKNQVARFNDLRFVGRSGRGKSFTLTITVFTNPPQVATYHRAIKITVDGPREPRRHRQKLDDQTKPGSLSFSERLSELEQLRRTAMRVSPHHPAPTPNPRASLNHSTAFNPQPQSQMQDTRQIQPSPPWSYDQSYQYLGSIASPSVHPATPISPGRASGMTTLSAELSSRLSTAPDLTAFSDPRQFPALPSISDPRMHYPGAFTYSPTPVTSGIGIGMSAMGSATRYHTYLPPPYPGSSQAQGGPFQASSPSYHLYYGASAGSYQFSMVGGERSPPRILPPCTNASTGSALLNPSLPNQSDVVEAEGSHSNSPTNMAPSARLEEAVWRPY
UniProt Q13951, whole entry, looked up: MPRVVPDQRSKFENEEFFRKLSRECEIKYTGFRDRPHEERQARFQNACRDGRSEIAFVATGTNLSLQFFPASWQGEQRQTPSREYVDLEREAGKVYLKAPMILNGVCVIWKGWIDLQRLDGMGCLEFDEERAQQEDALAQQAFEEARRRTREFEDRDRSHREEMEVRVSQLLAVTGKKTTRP

The compounds below were run against Runt-related transcription factor 1 (Homo sapiens) + Core-binding factor subunit beta (Homo sapiens) (UniProt Q01196+Q13951) (assay: inhibitors of RUNX1 Runt–CBFb binding, primary screen, biochemical, FRET, Cerulean-Runt, Venus-CBFb, uHTS (AID 1496;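 note: 0% = DMSO wells and 100% = excess unlabeled CBFb competitor control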)). Conditions: Cerulean-Runt/Venus-CBFb FRET ratio 530/480, 1 h; at 20 µM; hits give high values.
In short: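 Measured by: fluorescence energy transfer, 422 nm excitation, 530/480 nm emission; test system: Cerulean-tagged RUNX1 Runt domain (FRET donor) fusion protein; buffer or medium: Tris pH 7.5 buffer with BSA; compound: one dose, 20 µM compound, 1% DMSO; times: two 1 h room-temperature incubations shielded from light; benchmarks: unlabeled CBFb 5 µM, positive control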

| Compound | inhibition |
| --- | --- |
| N/C(=N\O)c1c(N)no[n+]1[O-] | inactive: -1.2% |
| O=C(OC1CN2CCC1CC2)C1c2ccccc2C=Cc2ccccc21 (centres undefined) | inactive: -3.1% |
| COc1ccc(C(=O)NCC2(N3CCOCC3)CCCCC2)cc1OC | inactive: -0.1% |
| c1ccc(CN2CCC(Nc3ccccc3)CC2)cc1 | inactive: -0.1% |
| N#Cc1ccc(C(=O)NCC2(N3CCCCC3)CCCCC2)cc1 | inactive: -1.3% |
| CCN1CCC(Nc2cccc(F)c2)CC1 | inactive: -1.8% |
| CN(C)c1ccc(C(=O)NCC2(N3CCCCC3)CCCCC2)cc1 | inactive: 1.4% |
| Fc1ccccc1NC1CCN(Cc2ccccc2)CC1 | inactive: -1.3% |
| CCC(CO)(C(=O)OC1CN2CCC1CC2)c1ccccc1 (centres undefined) | inactive: -0.8% |
| COc1cc(OC)cc(C(=O)NCC2(N3CCOCC3)CCCCC2)c1 | inactive: -2.1% |
| CCCOc1ccc(C)cc1CN(CCCl)CCCl | inactive: 1.7% |
| CCOc1ncccc1C(=O)NCC1(N2CCOCC2)CCCCC1 | inactive: 0.4% |
| CC(C)(C)OC(=O)N1CCC(Nc2ccccc2)CC1 | inactive: -2.4% |
| O=C(NCC1(N2CCOCC2)CCCCC1)c1cc2ccccc2o1 | inactive: -0.6% |
| CCOC(=O)N1CCC(Nc2ccc(OC)cc2)CC1 | inactive: 0.9% |
| O=C(OC1CN2CCC1CC2)C1c2ccccc2Oc2ccccc21 (centres undefined) | inactive: -1.1% |
| N#CC1(Nc2ccccc2)CCN(Cc2ccccc2)CC1 | inactive: -1.7% |
| COc1ccc(C(=O)NCC2(N3CCCCC3)CCCCC2)c(OC)c1OC | inactive: 1.9% |
| Cc1ccc(OCC(C)C)c(CN(CCCl)CCCl)c1 | inactive: 0.7% |
| CCOc1ccc(C)cc1CN(CCCl)CCCl | inactive: 1.4% |
| COc1ccc(NC2CCN(CCc3ccccc3)CC2)c(OC)c1 | inactive: 17.2% |
| COc1ccc(NC2CCN(C(=O)OC(C)(C)C)CC2)cc1 | inactive: 11% |
| CN1CCN(CCOC(=O)C(O)(c2ccccc2)c2ccccc2)CC1 | inactive: -2.3% |
| O=C(NCC1(N2CCOCC2)CCCCC1)c1cc(=O)[nH]c2ccccc12 | inactive: 1.7% |
| O=C(NCC1(N2CCCCC2)CCCCC1)c1cccc([N+](=O)[O-])c1 | inactive: -0.5% |
| N#CC1(Nc2ccccc2)CCN(CCc2ccccc2)CC1 | inactive: -0.4% |
| CN(C)c1cccc(C(=O)NCC2(N3CCCCC3)CCCCC2)c1 | inactive: -0.7% |
| COc1ccc(CN(CCCl)CCCl)cc1Cl | inactive: -1.8% |
| CC(C)c1ccc(NC2CCN(C(=O)OC(C)(C)C)CC2)cc1 | inactive: 3.3% |
